Experiment [1] concerns human immunodeficience virus (HIV). The experiment in a line: Virucidal activity, suspension test in vitro (MU 3.52431-08). It is filed as cell-based. The source says: Virucidal activity of copper acrylate-propionate obtained as described in example 4 was investigated by analogy with examples 14-19.
Virucidal activity of zinc methacrylate-myristate obtained as described in example 11 was investigated by analogy with examples 14-19.

The subject of experiment [2] is influenza A virus.
The mark [3] stands for this setting: biocide 0.01 % in aqueous solution, exposure 30 min.
Where [4] appears, read: biocide 0.01 %, exposure 60 min.
[5] abbreviates: biocide 0.05 %, exposure 30 min.
Setting [6] is: biocide 0.05 %, exposure 60 min.

For `C=CC(=O)[O-].CCCCCC(=O)[O-].[Zn+2]` [Zinc acrylate-capronate], the “Degree of virus inhibition, lg TCID50” value in experiment [1] (setting [3]) is recorded as 0.0 lg TCID50; in experiment [1] (setting [4]), 0.0 lg TCID50; in experiment [1] (setting [5]), 2.0 lg TCID50; in experiment [1] (setting [6]), 3.5 lg TCID50; in experiment [1] (biocide 0.1 %, exposure 30 min) it was 4.5 lg TCID50; in experiment [1] (biocide 0.1 %, exposure 60 min), 5.0 lg TCID50.
`C=C(C)C(=O)[O-].CC(=O)[O-].[Zn+2]` [Zinc methacrylate-acetate, zinc methacrylate-acetate, reference compound]: the “Degree of virus inhibition, lg TCID50” value is given as 0.0 lg TCID50 in experiment [1] (setting [3]); 0.0 lg TCID50 in experiment [1] (setting [4]); 0.0 lg TCID50 in experiment [1] (setting [5]); 0.0 lg TCID50 in experiment [1] (setting [6]); 1.0 lg TCID50 in experiment [1] (biocide 0.1 %, exposure 30 min); 2.5 lg TCID50 in experiment [1] (biocide 0.1 %, exposure 60 min). The “Degree of virus inhibition, lg TCID50” value in experiment [2] came out at 0.0 lg TCID50. Also, the “Virucidal activity (criterion for disinfectants: inhibition not less than 4 lg TCID50)” value in experiment [2] was “does not substantially exhibit virucidal activity”.
Take `C=CC(=O)[O-].CCC(=O)[O-].[Cu+2]` [Copper acrylate-propionate]: the “Degree of virus inhibition, lg TCID50” value in experiment [1] (setting [3]) worked out at 0.0 lg TCID50; in experiment [1] (setting [4]), 1.0 lg TCID50; in experiment [1] (setting [5]), 3.0 lg TCID50; in experiment [1] (setting [6]), 3.5 lg TCID50; in experiment [1] (biocide 0.1 %, exposure 30 min), 4.0 lg TCID50; in experiment [1] (biocide 0.1 %, exposure 60 min), 5.0 lg TCID50.

For the origin of these results see patent publication US9924715B2, “Zinc or copper (II) salt and use thereof as a biocide” (LABORATORIYA BIO ZET, LLC, priority 2014, dated 2018).
